According to patent US20140128385A1 (NOVARTIS AG, priority 2011, published 2014):
Like-named read-outs stand apart in the source and are kept apart here.

Chains of the proteins cited; added tags and fusions are not shown. Residues count along the entry.
UniProt Q9Y5Z0, 63-473 limits assumed: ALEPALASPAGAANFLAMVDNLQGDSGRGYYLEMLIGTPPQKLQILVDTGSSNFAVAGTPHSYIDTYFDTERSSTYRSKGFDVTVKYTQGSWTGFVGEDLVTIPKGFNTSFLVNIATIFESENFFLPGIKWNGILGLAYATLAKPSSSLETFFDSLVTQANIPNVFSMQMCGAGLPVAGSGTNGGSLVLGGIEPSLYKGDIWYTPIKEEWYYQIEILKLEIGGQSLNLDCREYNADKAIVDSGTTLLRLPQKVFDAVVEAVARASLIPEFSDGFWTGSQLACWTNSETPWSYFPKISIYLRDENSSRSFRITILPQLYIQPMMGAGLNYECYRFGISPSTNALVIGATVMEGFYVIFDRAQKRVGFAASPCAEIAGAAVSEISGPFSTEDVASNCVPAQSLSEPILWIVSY

Biological target: BACE-2 (Homo sapiens, UniProt Q9Y5Z0)
Experiment: assay for inhibition of BACE-2
Assay type: biochemical
Settings: read-out: BACE-2 IC50

Q: Which IC50 (tested form: HCl) does the source give for `COc1ccc(C(=O)Nc2ccc(F)c([C@]3(C(F)F)COCC(N)=N3)c2)nc1` here?
A: Its IC50 is 32 nM.

Q: With `COc1cnc(C(=O)Nc2ccc(F)c([C@]3(C(F)F)COCC(N)=N3)c2)cn1` as the compound, how does the IC50 read?
A: The IC50 was 496 nM.
